## Binding of CDR-mutated scFvs to a peptide of the spike HR2 region

From the AlphaSeq antibody data of Engelhart et al. 2022 (doi:10.1038/s41597-022-01779-4), copy in the FLAb collection.

Antigen: PDVDLGDISGINAS, a 14-residue peptide of the SARS-CoV-2 spike HR2 region.

The variants keep the heavy chain, the linker and the frameworks of Ab-14 (scFv order VH, a 15-residue (Gly4Ser)3 linker, VL).
VH: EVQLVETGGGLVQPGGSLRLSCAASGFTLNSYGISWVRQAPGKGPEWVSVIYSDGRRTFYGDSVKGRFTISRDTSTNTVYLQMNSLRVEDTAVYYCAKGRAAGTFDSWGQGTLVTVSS
VL: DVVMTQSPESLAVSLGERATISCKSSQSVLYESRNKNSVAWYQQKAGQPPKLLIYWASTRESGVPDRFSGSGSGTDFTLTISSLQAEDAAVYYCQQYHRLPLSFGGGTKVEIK

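The parent was found by panning a naive human phage display library on the peptide. AAYL50 was designed without a model: most single CDR substitutions and a random sample of double and triple ones. Affinity was read by AlphaSeq, a pooled yeast mating assay with surface-displayed partners. Mating (16 h, 30 °C) was followed by selection of diploids and sequencing of their barcodes. The ratio of observed to expected reads was calibrated, replicate by replicate, on BCL2-family standards whose Kd was known from biolayer interferometry. Mating was done three times.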

Changes read parent residue, position, new residue, counted from the first residue of the VL shown.
Every variant below is changed at L30 of the VL (sequential numbering).
Affinities are written as log10 Kd with Kd in nM; a lower number is a better binder.
A mean of the replicates is given; it leaves out those without a signal.
"no signal" marks a missing value. The strain was present, yet no cells mated with the target were sequenced in any replicate, which points to weak or no binding.
Empty control strains, which show no peptide, gave a signal in 18% of pairings with library AAYL50; the median was 4.19 and 95% of these signals were weaker than 2.99. No background was subtracted. For each scFv, signals with the empty controls are counted beside the result.
In this assay the parent's reference entry averaged 0.65; its copy inside this library read 1.68.

Variant L30F+L102N showed 1.17 (3 of 3 replicates; controls 0 of 9).
Variant L30V+A57Q+P101I showed 4.48 (2 of 3 replicates; controls 2 of 9).
Variant L30D+R34S showed 0.46 (3 of 3 replicates; controls 4 of 9).
Variant L30G+T59D+Y97I showed 3.18 (3 of 3 replicates; controls 3 of 9).
Variant L30A+E32Y+T59M showed 4.13 (1 of 3 replicates; controls 5 of 9).
Variant L30W+S33R+Y97Q showed 3.72 (2 of 3 replicates; controls 5 of 9).
Variant L30N+S33H+W56N showed 0.82 (3 of 3 replicates; controls 0 of 9).
Variant V29G+L30P+E61H showed 0.86 (3 of 3 replicates; controls 5 of 9).
Variant Q27P+L30T+S38N showed 0.87 (3 of 3 replicates; controls 1 of 9).
Variant S28G+L30M+T59H showed 1.37 (3 of 3 replicates; controls 2 of 9).
Variant S28P+V29L+L30M showed 0.54 (3 of 3 replicates; controls 2 of 9).
Variant L30V+E61N+H98E showed 1.20 (3 of 3 replicates; controls 1 of 9).
Variant L30S+K36G+Q95V showed 1.32 (3 of 3 replicates; controls 7 of 9).
Variant L30T+Y31H+A57I showed 4.27 (2 of 3 replicates; controls 4 of 9).
Variant V29A+L30F+N37P showed 3.81 (1 of 3 replicates; controls 0 of 9).
Variant L30C+N37L+E61N showed 2.42 (3 of 3 replicates; controls 0 of 9).
Variant L30A+N37S+S58M showed 3.88 (2 of 3 replicates; controls 4 of 9).
Variant L30V+R34P+A40I showed 2.91 (1 of 3 replicates; controls 1 of 9).
Variant L30F+K36W showed 1.28 (3 of 3 replicates; controls 3 of 9).
Variant L30M+L100V+L102N showed 5.47 (2 of 3 replicates; controls 5 of 9).
Variant L30Y+R34Q+R99H showed 0.27 (3 of 3 replicates; controls 2 of 9).
Variant L30E+N35E+L102V showed 1.62 (3 of 3 replicates; controls 0 of 9).
Variant S28N+L30Y+L102N showed 2.28 (3 of 3 replicates; controls 1 of 9).
Variant L30R+N35P+Q96N showed 4.92 (2 of 3 replicates; controls 6 of 9).
Variant L30A+S62Y showed 1.04 (3 of 3 replicates; controls 1 of 9).
Variant L30R+Q96D showed 0.70 (3 of 3 replicates; controls 1 of 9).
Variant L30E+V39N+R60G showed no signal (0 of 3 replicates; controls 0 of 9).
Variant L30D+K36M+N37K showed 1.08 (3 of 3 replicates; controls 3 of 9).
Variant L30W+Q95A+S103H showed 1.09 (3 of 3 replicates; controls 7 of 9).
Variant L30Y+S38I+S58M showed no signal (0 of 3 replicates; controls 3 of 9).
Variant L30G+S62K+Y97G showed no signal (0 of 3 replicates; controls 1 of 9).
Variant S26G+L30V+V39N showed no signal (0 of 3 replicates; controls 1 of 9).
Variant V29M+L30Y+N35Y showed 2.32 (3 of 3 replicates; controls 4 of 9).
Variant S26P+L30C showed 1.03 (3 of 3 replicates; controls 6 of 9).
Variant S25F+L30Q+E32I showed 0.63 (3 of 3 replicates; controls 3 of 9).
Variant L30K+K36A showed 0.61 (3 of 3 replicates; controls 0 of 9).
Variant L30Q+R99Q+P101D showed no signal (0 of 3 replicates; controls 0 of 9).
Variant L30R+E32C+L100V showed 3.06 (2 of 3 replicates; controls 1 of 9).
Variant Q27V+L30S+S103G showed 0.48 (3 of 3 replicates; controls 0 of 9).
Variant S25M+L30W+S103F showed 0.42 (3 of 3 replicates; controls 1 of 9).
Variant L30N+E32V+N35V showed 2.15 (3 of 3 replicates; controls 0 of 9).
Variant L30Y+R34L+V39N showed 4.81 (1 of 3 replicates; controls 0 of 9).
Variant L30H+T59I+L100Q showed 1.50 (3 of 3 replicates; controls 0 of 9).
Variant L30A+R34C+A57R showed 5.46 (1 of 3 replicates; controls 4 of 9).
Variant L30R+W56D+L100S showed -0.20 (3 of 3 replicates; controls 4 of 9).
Variant V29C+L30K+E32C showed 2.63 (3 of 3 replicates; controls 3 of 9).
Variant L30F+R34G+T59N showed 0.74 (3 of 3 replicates; controls 3 of 9).
Variant L30V+R34E+E61I showed -0.22 (3 of 3 replicates; controls 0 of 9).
Variant L30F+S33R+Q96K showed 4.87 (1 of 3 replicates; controls 1 of 9).
Variant L30W+K36S+S58M showed 4.74 (2 of 3 replicates; controls 1 of 9).
Variant L30N+R34K+R99G showed 3.16 (3 of 3 replicates; controls 3 of 9).
Variant Q27S+L30H+S62K showed 4.11 (1 of 3 replicates; controls 3 of 9).

8 of these entries, quoted again:

changes,mean log10 Kd (nM),detected,empty controls
L30Q+R99Q+P101D,no signal,0 of 3,0 of 9
L30A+R34C+A57R,5.46,1 of 3,4 of 9
S25M+L30W+S103F,0.42,3 of 3,1 of 9
S26P+L30C,1.03,3 of 3,6 of 9
L30V+R34E+E61I,-0.22,3 of 3,0 of 9
L30A+E32Y+T59M,4.13,1 of 3,5 of 9
S28G+L30M+T59H,1.37,3 of 3,2 of 9
L30Y+S38I+S58M,no signal,0 of 3,3 of 9